# Data published in publication PMC2613638 (The Journal of Biological Chemistry, 2009).
# How the values were obtained:
# CPN = target: T1, CPN (Homo sapiens, UniProt P15169); assay: Michaelis-Menten kinetics of peptide hydrolysis by CPN; format: biochemical
# T1 sequence (P15169 21-458): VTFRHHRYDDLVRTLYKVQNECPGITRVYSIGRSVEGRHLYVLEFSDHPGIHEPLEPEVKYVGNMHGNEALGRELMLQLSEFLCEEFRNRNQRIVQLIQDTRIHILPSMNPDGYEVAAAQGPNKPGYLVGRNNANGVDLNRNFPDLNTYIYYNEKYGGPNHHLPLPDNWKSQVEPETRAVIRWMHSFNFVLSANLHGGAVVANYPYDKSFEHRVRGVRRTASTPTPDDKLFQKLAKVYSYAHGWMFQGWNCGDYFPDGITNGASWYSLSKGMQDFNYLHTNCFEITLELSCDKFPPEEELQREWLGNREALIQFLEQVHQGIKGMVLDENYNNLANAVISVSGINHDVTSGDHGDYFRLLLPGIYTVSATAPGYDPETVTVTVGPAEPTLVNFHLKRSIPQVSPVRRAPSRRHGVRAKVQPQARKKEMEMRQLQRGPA
# CPB (TAFIa) [1] = target: T2, CPB (TAFIa) (Homo sapiens, UniProt Q96IY4); assay: Michaelis-Menten kinetics of peptide hydrolysis by CPB; format: biochemical; conditions: hydrolysis by 50 nM CPB, peptide 20 to 320 μM, 5 min at 37 °C
# T2 sequence (Q96IY4 115-423): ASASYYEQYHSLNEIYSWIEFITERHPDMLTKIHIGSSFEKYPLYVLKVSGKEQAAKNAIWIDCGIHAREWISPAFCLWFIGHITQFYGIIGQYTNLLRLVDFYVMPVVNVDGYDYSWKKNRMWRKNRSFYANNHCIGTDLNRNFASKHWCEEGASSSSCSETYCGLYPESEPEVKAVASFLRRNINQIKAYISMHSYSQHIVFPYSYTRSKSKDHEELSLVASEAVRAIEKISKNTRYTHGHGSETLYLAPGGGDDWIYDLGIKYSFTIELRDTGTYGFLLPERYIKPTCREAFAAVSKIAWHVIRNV
# human CMKLR1 = target: T3, human CMKLR1 (Homo sapiens, UniProt Q99788); assay: In vitro transwell chemotaxis of CMKLR1/L1.2 transfectants; format: cell-based
# T3 sequence (Q99788 1-373): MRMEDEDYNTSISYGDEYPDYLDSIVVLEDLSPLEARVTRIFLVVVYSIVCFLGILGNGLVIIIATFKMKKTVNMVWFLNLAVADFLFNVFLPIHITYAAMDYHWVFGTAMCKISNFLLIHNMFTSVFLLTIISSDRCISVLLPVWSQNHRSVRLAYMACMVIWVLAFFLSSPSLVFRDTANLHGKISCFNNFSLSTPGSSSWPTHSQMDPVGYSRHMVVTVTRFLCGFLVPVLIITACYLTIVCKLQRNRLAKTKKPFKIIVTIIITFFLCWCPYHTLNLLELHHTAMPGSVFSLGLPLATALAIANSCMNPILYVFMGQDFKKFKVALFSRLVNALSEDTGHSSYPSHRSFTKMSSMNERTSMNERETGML
# CPB (TAFIa) [2] = target: T2, CPB (TAFIa); assay: HPLC analysis of chemerin 10-mer cleavage by CPB; format: biochemical; conditions: 10-mer 1 μM, CPB 30 nM, 30 min at 37 °C, C18 HPLC
# [3] = tested on: recombinant CPN (carboxypeptidase N); assay: CPN; conditions: 37 °C, up to 30 min
"kcat/Km by CPN, fold faster than CPB (CPN)","kcat/Km (CPN; hydrolysis by 5 nM CPN, peptide 20 to 320 μM, 5 min at 37 °C)",kcat/Km (CPB (TAFIa) [1]),"chemotactic activity after treatment with CPN or CPB (human CMKLR1; 10-mer treated with CPN (30 nM) or CPB (30 nM) at 37 °C for 30 min, Fig. 1B)",efficiency of 10-mer cleavage (CPB (TAFIa) [2]),cleaved bond [3],Molecule,"CMKLR1-dependent chemotaxis (human CMKLR1; peptide alone, even at 10 μM, 3 h at 37 °C, Fig. 1A)"
about 20 fold,470000 M⁻¹ s⁻¹,22000 M⁻¹ s⁻¹,substantially enhanced,about 60%,,C[C@H](NC(=O)[C@H](Cc1ccccc1)NC(=O)[C@H](CCC(N)=O)NC(=O)CNC(=O)[C@@H]1CCCN1C(=O)[C@H](Cc1ccccc1)NC(=O)[C@@H](N)Cc1ccc(O)cc1)C(=O)N[C@@H](Cc1ccccc1)C(=O)N[C@@H](CO)C(=O)N[C@@H](CCCCN)C(=O)O [10-mer],did not induce any significant CMKLR1-dependent chemotaxis
,,,,,"S157-K158, major",YFPGQFAFSK,
